## Ab-14 heavy chain CDR variants: yeast mating affinities

Reference: Li et al. 2023, doi:10.1038/s41467-023-39022-2. File: FLAb, binding data.

Target: peptide PDVDLGDISGINAS, taken from heptad repeat 2 (HR2) of SARS-CoV-2 spike.

Parent scFv Ab-14: VH joined to VL by three GGGGS repeats. Changes lie in the heavy chain CDRs alone.
VH: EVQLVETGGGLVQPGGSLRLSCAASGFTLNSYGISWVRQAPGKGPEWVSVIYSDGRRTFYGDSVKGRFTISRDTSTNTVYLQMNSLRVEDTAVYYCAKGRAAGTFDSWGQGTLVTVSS
VL: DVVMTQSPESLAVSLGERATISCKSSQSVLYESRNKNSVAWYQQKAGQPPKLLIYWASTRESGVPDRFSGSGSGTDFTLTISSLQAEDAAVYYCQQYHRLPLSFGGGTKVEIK

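The starting antibody came from a phage panning campaign against this peptide. Designed CDR sequences, proposed from the first random library and measured here. Their group label is 14H_GPLM_HC (GPLM: also part of the Gaussian process libraries; HC: hill climbing; a sequence that several methods proposed may carry one label only). Affinity was read by AlphaSeq, a pooled yeast mating assay with surface-displayed partners. Pairs that bind mate more often; barcode pairs of the diploids are counted by sequencing. The ratio of observed to expected reads was calibrated, replicate by replicate, on BCL2-family standards whose Kd was known from biolayer interferometry. There are six technical replicates.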

Each variant is given by its three heavy chain CDRs, as the data file delimits them; those of the parent are GFTLNSYGIS, VIYSDGRRTFYGDSVK, GRAAGTFDS. Values are log10 of the apparent Kd in nM; lower means stronger binding. A pair that was not seen in that replicate is written "nd"; this usually means weak binding, but a binder can also be missed.

With LFTLNDYGIS | VIYSDGRRTQYIDSVK | GRAAGTFDS the result was nd, nd, nd, nd, nd, nd (controls 0 of 18).
With KFTLNSYGIS | VIYSDGRRTFYGDSVK | GQLAGTFDS the result was nd, nd, nd, 1.55, nd, nd (controls 0 of 18).
With GFTLNEYGIS | VIYSDGRRTFYTDSVK | GRTAGTFFS the result was nd, nd, nd, nd, nd, 2.08 (controls 0 of 18).
With GFTLNDYGIS | VIYSDGRRTFYIDSVK | GRAAGTFVS the result was 3.46, nd, nd, nd, nd, nd (controls 1 of 18).
With GFQLNEYGIS | VIYSDGRRTFYGDSVK | GRAAGTFIS the result was nd, nd, nd, nd, nd, nd (controls 0 of 18).
With GFSLNDYGIS | VIYSDGRRTFYGDSVK | GRAAGTFVS the result was nd, 0.94, nd, nd, nd, nd (controls 0 of 18).
With GFQLNQYGIS | VIYSDGRRTFYADSVK | GRAAGTFDS the result was 1.59, 0.87, 1.00, 1.65, 1.91, 0.87 (controls 0 of 18).
With GFTLNEYGIS | VIYSDGRRTFYGDSVK | GRAALTFDC the result was nd, nd, nd, nd, nd, nd (controls 0 of 18).
With GFTLNQYGIS | VIYSDGKRTFYSDSVK | GKAAGTFDS the result was 0.36, 0.43, 0.64, 0.35, 0.05, 0.39 (controls 0 of 18).
With GFQLNSYGIS | VIYSDGRRTFYSDSVK | GHAGGTFDS the result was 2.48, 1.41, 1.06, 2.85, 1.64, 1.81 (controls 0 of 18).
With GFDLNSYGIS | VIYSDGRRTFYGDSVK | GRAAVTFDS the result was nd, nd, nd, nd, nd, nd (controls 0 of 18).
With GFTLNDYGIS | VIYSDGRRTFYGDSVK | GRCAGTFDS the result was 1.36, nd, 0.66, 0.39, nd, 0.64 (controls 0 of 18).
With GFTLNSYGIS | VIYSDGRRTFYQDSVK | GQNAGTFDS the result was nd, nd, nd, nd, nd, nd (controls 0 of 18).
With GFTINSYGIS | VIYSDGRRTFYSDSVK | GSAAGTFDS the result was nd, 2.01, 0.91, 1.52, 2.99, 1.29 (controls 0 of 18).
With GFTLNDYGIS | VIYSDGRRTFYSDSVK | GRAAGSFDS the result was 1.24, 0.67, 0.15, 0.42, 0.53, 0.65 (controls 1 of 18).
With GFNLNSYGIS | VIYSDGRRTFYQDSVK | GQAAGTFDS the result was 0.67, 0.84, 0.81, 0.53, 0.95, 0.60 (controls 1 of 18).
With GFTLNSYGIS | VIYADGRRTFYGDSVK | GRAAGTIDS the result was nd, nd, nd, nd, nd, nd (controls 0 of 18).
With GFTLNEYGIS | VIYSDGRRTFYGDSVK | GRQAGTFIS the result was nd, nd, nd, nd, nd, nd (controls 0 of 18).
With GFSLNEYGIS | VIYSDGRRTFYSDSVK | GRAAVTFDS the result was nd, nd, nd, nd, nd, nd (controls 0 of 18).
With GFTLNDYGIS | VIYSDGRRTFYGDSVK | GRAAGTFWD the result was nd, nd, nd, nd, nd, nd (controls 0 of 18).
With GFTLNEYGIS | VIYSDGRRTFYGDSVK | GRAAGTFMS the result was nd, nd, nd, nd, nd, nd (controls 1 of 18).
With GFTLNEYGIS | VIYSDGRRTFYTDSVK | GRFAGTFDK the result was 0.84, 0.72, 1.43, 1.27, 0.52, 1.30 (controls 0 of 18).
With GTTLNDYGIS | VIYSDGRRTQYIDSVK | GRAAGTFDS the result was nd, nd, nd, nd, nd, nd (controls 0 of 18).
With GFTLNEYGIS | VIYSDGIRTFYGDSVK | GRQAGTFDS the result was 0.22, 0.80, 0.26, 0.24, 0.23, 0.73 (controls 1 of 18).
With GFTLNEYGIS | VIYSDGRRTFYDDSVK | GRFAGTFDS the result was 0.22, 0.79, 0.42, 0.36, 0.69, 0.21 (controls 0 of 18).
With GFTLNQYGIS | VIYSDGKRTFYSDSVK | GEAAGTFDS the result was 0.88, 0.82, -0.19, 0.04, 0.00, 0.61 (controls 1 of 18).
With GFTLNEYGIS | VIYSDGRRTFYGDSVK | GRAAGTFIT the result was nd, 2.72, nd, nd, nd, nd (controls 0 of 18).
With GFDLNSYGIS | VIYSDGRRTFYGDSVK | GRAAGYFMS the result was nd, nd, nd, nd, nd, nd (controls 0 of 18).
With GFTLNEYGIS | VIYSDGRRTFYMDSVK | GRFAGTFDT the result was 0.77, 0.98, 0.75, 0.62, 0.78, 0.63 (controls 0 of 18).
With GFTLNEYGIS | VIYSDGRRTFYGDSVK | GRFAGTFDK the result was 1.01, 1.00, 1.97, 3.13, 1.10, 0.95 (controls 0 of 18).
With GFELNSYGIS | VIYADGRRTFYGDSVK | GRAAGTNDS the result was nd, nd, nd, nd, nd, nd (controls 0 of 18).
With GFTLDSYGIS | VIYSDGRRTFYGDSVK | GRAAGTFLQ the result was nd, nd, nd, nd, nd, nd (controls 0 of 18).

The 5 strongest on average among those seen in every replicate, once more:

For GFTLNQYGIS | VIYSDGKRTFYSDSVK | GEAAGTFDS, the assay gave 0.88, 0.82, -0.19, 0.04, 0.00, 0.61 (controls 1 of 18).
For GFTLNQYGIS | VIYSDGKRTFYSDSVK | GKAAGTFDS, the assay gave 0.36, 0.43, 0.64, 0.35, 0.05, 0.39 (controls 0 of 18).
For GFTLNEYGIS | VIYSDGIRTFYGDSVK | GRQAGTFDS, the assay gave 0.22, 0.80, 0.26, 0.24, 0.23, 0.73 (controls 1 of 18).
For GFTLNEYGIS | VIYSDGRRTFYDDSVK | GRFAGTFDS, the assay gave 0.22, 0.79, 0.42, 0.36, 0.69, 0.21 (controls 0 of 18).
For GFTLNDYGIS | VIYSDGRRTFYSDSVK | GRAAGSFDS, the assay gave 1.24, 0.67, 0.15, 0.42, 0.53, 0.65 (controls 1 of 18).

Empty control strains, which show no peptide, gave a signal in 1% of pairings with all heavy chain designs; the median was 2.08 and 95% of these signals were weaker than 0.84. No background was subtracted. Also given: how often the same scFv was detected with the empty control strains. In the paper, a design with two or fewer of six values counts as a poor binder. Of ten entries with the parent sequence, four were seen in most replicates (averages 0.34 to 2.37), three in one and three in none, so single entries are noisy. The range of this assay differs from that of the first round, and the authors advise against merging the two.